# Laboratory results published in ChEMBL document CHEMBL1155179 (J Med Chem, 2009).
# Sequences of proteins named here, by UniProt entry; tags and fusion partners are left off.
# UniProt Q01827, whole entry: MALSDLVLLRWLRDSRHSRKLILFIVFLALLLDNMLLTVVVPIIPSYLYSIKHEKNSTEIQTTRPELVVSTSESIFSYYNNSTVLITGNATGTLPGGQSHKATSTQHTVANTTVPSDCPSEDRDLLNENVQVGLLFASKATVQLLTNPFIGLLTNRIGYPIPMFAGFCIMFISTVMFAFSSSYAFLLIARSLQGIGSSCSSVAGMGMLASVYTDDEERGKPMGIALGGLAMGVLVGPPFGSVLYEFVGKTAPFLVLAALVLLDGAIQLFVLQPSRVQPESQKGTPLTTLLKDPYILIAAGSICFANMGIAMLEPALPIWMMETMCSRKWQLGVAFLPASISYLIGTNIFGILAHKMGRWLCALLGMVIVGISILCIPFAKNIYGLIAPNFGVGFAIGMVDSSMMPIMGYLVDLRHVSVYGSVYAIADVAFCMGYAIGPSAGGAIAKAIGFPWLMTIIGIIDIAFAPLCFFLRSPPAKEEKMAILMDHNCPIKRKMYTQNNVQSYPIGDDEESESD
# Experiments:
# Format in all cases: tissue-based
# [1] = molecular target: T1, Synaptic vesicular amine transporter (Rattus norvegicus, UniProt Q01827); experiment: Displacement of [3H]DTBZ from VMAT2 dihydrotetrabenazine binding site in rat brain synaptic vesicle by scintillation counting
# [2] = molecular target: T1, Synaptic vesicular amine transporter; experiment: Inhibition of [3H]dopamine uptake at VMAT2 in rat brain synaptic vesicle by liquid scintillation spectroscopy
# [3] = molecular target: Synaptic vesicular amine transporter (Rattus norvegicus) (UniProt Q01827); experiment: Ratio of Ki for displacement of [3H]DTBZ from VMAT2 dihydrotetrabenazine binding site in rat brain synaptic vesicle to Ki for inhibition of [3H]dopamine uptake at VMAT2 in rat brain synaptic vesicle
structure (smiles),measurement,setting,value
COc1cc2c(cc1OC)C1CC(=O)C(CC(C)C)CN1CC2 (stereo not drawn) [TETRABENAZINE],Ki,[1],13 nM
same,Ki,[2],54 nM
same,Ratio Ki,[3],0.24
